Key:
[1] = biological target: T1, AMAN-2 (Golgi α-mannosidase II) (Caenorhabditis elegans, UniProt Q2PJ74); experiment: α-mannosidase inhibition assay with pNP-Man substrate, AMAN-2; type: biochemical; details: ratio of Ki values
Description: The enzymes screened included two Golgi types (GMIIb and AMAN-2) and two lysosomal types (LManII and JBMan) (Table 1).
Recombinant soluble forms of Drosophila melanogaster Golgi (GMIIb) and lysosomal (LManII) α-mannosidases as well as Caenorhabditis elegans Golgi α-mannosidase AMAN-2 were produced in Pichia pastoris and enriched by ammonium sulfate precipitation or nickel chelation chromatography as previously described. The α-mannosidase from Canavalia ensiformis (JBMan) was purchased from Sigma. The mannosidase activity of these enzyme preparations were measured using p-nitrophenyl α -D-mannopyranoside ( pNP-Man; Sigma; 100 mM stock in dimethylsulfoxide) as a substrate at 2 mM final concentration in 50 mM acetate buffer of the relevant previously defined optimal pH, GMIIb and AMAN -2 at pH 6.0, LManII at pH 5.2 , and JBMan at pH 5.0) and 0.5 μL of the enzyme (0.05 µg of protein for JBMan), in a total volume of 50 μL for 1–2 h at 37 °C. GMIIb was assayed in the presence of 0.5 mM CoCl2.
The lyophilized derivatives used in the assay were dissolved in DMSO to the final concentration 50 mM and further diluted to a desired concentration in water. […] The reactions were terminated with two volumes (0.1 mL) of 0.5 M sodium carbonate and the production of p-nitrophenol was measured at 405 nm using a multimode reader Mithras LB943 (Berthold Technologies). […]

By UniProt entry, the sequences of proteins in these tests, tags left out.
UniProt Q2PJ74, entry or part of it: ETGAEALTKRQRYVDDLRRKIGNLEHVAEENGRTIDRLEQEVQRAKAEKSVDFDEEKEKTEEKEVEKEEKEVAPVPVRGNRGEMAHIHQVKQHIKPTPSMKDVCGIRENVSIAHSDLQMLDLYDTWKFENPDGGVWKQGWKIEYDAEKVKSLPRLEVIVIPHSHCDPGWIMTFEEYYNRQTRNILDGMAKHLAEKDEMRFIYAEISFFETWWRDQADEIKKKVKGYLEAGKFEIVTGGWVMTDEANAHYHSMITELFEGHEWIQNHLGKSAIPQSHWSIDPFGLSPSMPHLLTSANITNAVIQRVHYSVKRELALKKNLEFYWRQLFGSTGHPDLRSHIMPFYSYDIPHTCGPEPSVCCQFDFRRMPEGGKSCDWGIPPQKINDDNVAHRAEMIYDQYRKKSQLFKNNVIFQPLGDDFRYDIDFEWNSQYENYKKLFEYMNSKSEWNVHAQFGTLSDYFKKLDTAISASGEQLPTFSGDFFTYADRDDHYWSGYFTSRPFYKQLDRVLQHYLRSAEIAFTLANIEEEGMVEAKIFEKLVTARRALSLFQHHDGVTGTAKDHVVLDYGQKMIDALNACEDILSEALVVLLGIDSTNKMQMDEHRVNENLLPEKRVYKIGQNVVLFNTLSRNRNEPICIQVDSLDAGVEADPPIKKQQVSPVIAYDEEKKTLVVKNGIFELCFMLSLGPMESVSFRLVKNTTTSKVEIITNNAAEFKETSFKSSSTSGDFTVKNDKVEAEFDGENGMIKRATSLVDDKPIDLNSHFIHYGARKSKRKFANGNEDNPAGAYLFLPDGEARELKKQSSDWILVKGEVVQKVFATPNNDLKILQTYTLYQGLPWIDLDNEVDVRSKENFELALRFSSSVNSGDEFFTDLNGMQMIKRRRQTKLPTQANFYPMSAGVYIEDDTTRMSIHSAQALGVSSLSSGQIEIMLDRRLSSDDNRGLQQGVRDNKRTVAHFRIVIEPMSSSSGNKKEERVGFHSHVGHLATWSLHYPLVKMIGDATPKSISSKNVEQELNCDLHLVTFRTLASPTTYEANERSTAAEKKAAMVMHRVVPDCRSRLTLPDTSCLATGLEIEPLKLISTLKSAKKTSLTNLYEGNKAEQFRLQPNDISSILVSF
UniProt Q9VF33, entry or part of it: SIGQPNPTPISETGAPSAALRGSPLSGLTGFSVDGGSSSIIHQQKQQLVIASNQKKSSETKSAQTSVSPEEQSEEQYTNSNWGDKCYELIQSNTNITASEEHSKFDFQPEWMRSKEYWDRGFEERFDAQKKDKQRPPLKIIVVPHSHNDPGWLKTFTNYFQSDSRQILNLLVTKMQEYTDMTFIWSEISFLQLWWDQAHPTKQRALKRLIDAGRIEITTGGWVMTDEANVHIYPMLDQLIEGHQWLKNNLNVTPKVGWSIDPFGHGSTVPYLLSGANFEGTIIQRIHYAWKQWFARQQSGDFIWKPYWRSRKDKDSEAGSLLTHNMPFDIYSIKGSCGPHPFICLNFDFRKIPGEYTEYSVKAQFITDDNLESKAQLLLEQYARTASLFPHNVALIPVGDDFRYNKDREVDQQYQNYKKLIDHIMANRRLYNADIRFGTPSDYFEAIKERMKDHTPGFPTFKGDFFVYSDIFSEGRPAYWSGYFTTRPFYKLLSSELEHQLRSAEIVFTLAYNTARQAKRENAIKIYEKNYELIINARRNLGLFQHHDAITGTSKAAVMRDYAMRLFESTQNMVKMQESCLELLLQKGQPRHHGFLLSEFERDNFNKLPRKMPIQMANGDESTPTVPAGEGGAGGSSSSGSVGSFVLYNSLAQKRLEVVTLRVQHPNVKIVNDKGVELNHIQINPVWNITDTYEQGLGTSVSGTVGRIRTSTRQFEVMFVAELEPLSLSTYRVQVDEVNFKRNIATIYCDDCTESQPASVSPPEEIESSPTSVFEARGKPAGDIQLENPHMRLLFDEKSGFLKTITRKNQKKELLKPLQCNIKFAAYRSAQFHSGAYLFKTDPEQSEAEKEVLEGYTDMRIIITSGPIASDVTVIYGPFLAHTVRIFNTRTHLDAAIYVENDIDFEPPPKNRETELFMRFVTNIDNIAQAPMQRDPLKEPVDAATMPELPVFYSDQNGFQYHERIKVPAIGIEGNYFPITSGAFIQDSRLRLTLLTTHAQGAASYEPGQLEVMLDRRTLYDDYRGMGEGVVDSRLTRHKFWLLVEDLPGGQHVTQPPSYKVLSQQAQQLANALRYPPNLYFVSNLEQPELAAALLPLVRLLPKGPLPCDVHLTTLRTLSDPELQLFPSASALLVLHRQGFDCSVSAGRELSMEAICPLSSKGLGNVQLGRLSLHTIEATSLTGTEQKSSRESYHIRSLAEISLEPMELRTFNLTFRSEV
UniProt Q9VKV1, entry or part of it: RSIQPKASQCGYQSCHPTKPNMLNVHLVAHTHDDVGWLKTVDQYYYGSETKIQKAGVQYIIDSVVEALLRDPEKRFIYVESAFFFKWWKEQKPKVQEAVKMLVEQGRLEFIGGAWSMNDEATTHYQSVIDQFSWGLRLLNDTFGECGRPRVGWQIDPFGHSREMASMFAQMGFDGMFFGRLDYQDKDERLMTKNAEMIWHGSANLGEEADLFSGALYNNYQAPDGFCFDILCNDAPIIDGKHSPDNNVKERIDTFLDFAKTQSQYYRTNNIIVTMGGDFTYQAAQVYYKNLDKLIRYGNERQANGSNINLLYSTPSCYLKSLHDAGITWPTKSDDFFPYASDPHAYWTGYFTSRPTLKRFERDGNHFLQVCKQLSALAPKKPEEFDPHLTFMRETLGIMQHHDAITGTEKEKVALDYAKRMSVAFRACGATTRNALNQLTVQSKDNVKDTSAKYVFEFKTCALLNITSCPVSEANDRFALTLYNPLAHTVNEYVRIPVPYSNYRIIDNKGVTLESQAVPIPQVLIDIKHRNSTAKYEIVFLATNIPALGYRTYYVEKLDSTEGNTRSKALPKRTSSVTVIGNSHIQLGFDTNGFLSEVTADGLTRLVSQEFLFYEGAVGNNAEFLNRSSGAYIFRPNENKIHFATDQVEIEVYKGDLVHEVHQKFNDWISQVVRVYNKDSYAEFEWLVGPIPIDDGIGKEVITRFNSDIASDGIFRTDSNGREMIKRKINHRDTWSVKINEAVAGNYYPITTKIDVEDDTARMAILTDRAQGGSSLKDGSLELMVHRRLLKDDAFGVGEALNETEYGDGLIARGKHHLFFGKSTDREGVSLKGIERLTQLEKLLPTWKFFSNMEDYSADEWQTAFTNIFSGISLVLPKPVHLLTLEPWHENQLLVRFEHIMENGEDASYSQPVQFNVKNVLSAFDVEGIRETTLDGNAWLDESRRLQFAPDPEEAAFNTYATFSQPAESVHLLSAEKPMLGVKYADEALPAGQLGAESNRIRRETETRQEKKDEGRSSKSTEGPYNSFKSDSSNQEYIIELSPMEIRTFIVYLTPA

[2] = biological target: GMIIb (Golgi α-mannosidase) (Drosophila melanogaster, UniProt Q9VF33); details: ref Nemčovičová et al. [35]; cited from earlier work
[3] = biological target: T1, AMAN-2 (Golgi α-mannosidase II); details: estimated from the reported 45% inhibition at 10 nM; ref Paschinger et al. [36]; cited from earlier work
[4] = biological target: LManII (lysosomal α-mannosidase) (Drosophila melanogaster, UniProt Q9VKV1); details: ref Nemčovičová et al. [35]; cited from earlier work
[5] = biological target: T2, JBMan (Jack bean α-mannosidase) (Canavalia ensiformis, UniProt C0HJB3); details: ref Poláková et al. [38]; cited from earlier work
T2 construct: purchased Sigma
T2 sequence (C0HJB3 1-981): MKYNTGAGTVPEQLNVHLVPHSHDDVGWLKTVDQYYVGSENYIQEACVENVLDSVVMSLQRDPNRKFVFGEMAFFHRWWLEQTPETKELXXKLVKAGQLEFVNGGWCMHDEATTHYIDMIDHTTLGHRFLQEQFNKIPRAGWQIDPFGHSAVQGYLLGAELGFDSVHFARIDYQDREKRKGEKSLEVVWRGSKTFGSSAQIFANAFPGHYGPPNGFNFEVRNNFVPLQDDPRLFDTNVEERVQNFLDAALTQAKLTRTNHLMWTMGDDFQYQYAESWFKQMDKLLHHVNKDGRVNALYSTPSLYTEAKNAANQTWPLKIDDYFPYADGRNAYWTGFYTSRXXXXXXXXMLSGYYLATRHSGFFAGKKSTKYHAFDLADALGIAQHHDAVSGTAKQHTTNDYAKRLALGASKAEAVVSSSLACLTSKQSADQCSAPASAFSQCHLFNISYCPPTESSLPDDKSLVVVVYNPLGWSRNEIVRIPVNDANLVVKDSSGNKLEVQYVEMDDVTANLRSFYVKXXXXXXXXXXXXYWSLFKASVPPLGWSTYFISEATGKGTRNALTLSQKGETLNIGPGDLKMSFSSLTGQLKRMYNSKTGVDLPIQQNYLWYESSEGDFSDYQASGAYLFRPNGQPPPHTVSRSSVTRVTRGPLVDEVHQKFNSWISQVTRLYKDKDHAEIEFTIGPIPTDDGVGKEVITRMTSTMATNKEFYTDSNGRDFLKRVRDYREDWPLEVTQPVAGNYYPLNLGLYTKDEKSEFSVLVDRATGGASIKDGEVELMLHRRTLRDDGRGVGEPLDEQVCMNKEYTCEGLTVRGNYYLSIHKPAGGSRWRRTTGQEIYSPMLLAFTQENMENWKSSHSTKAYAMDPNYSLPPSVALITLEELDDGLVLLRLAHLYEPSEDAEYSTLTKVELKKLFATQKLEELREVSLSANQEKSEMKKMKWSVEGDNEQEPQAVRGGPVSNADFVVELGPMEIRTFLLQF

For O[C@H]1[C@H]2[C@H](O)CCCN2C[C@H]1O [swainsonine, (−)-swainsonine], the “Selectivity index, SI [Ki (JBMan)/Ki (AMAN-2)]” value [1] is given as 20, the Ki [2] is given as 0.0027 µM and the IC50 [3] is given as 0.01 µM. The IC50 [4] was 0.012 µM, the Ki [4] was 0.0071 µM and the IC50 [5] was 0.2 µM.
